For assay [1], the system named is THP-1 cells. Kind of assay: γH2AX activation (double strand breaks, flow cytometry). To be noted: doxorubicin 62.5 nM; for DSB levels, compound on its own or as a pretreatment to doxorubicin: compound 5 μM (ricolinostat 1.25 μM) 72 h. Type of assay: cell-based. As for the experimental part:
The Muse ɣH2A.X Activation Dual Detection Kit (Merck Millipore, Burlington, MA, USA, MCH200101) protocols were followed for double strand break analysis. Treated cells were centrifuged at 300× g for 5 min, and the pellet was resuspended with 1 × Assay Buffer (CS202134) and fixed on ice for 5 min with Fixation Buffer (CS202122) in 1:1 ratio. Fixed cells were centrifuged for 600 g for 5 min and mixed with Permeabilization Buffer (1:2 ratio CS203284) and incubated on ice for 5 min. Then, cells were centrifuged at 600 g and resuspended with 20 × Anti-H2A.X PECy5 (CS208202) and 20 × Anti-phosphate (Ser139) Alexa Fluor 555 (CS208203) antibody mix and incubated for 30 min at room temperature. Stained cells were resuspended with 200 μL of 1 × Assay Buffer and γH2AX activation was analyzed with Muse Cell Analyzer (Merck Millipore).
Figure S25. Flow cytometric analysis of double strand breaks after combination treatments. THP-1
for 6 h. Cells were analysed with Muse Cell Analyzer for H2AX activation. Images represent as the
average from two biological repeats. The inactivated quadrant indicates the cells expressing H2AX
without phosphorylation and the activated quadrant indicates the ɣH2AX phosphorylated cells.
In general terms: Flow cytometry measures light scatter and fluorescence of single cells or particles in a stream.

The test system of assay [2] is THP-1 cells. The assay can be described thus: Reactive oxygen species activation (Muse Oxidative Stress Kit). Type of assay: cell-based. To be noted: for ROS in combination with doxorubicin vs doxorubicin alone: compound 5 μM (ricolinostat 1.25 μM) 72 h, then + doxorubicin 62.5 nM 24 h.
The test system of assay [3] is THP-1 cells. The assay can be described thus: Combination treatment with antileukemic drugs, THP-1 cell viability. It is filed as cell-based. To be noted: compound 5 μM (ricolinostat 1.25 μM) 72 h, then compound + doxorubicin 62.5 nM 48 h.
In assay [4] the test system is THP-1 cells. The assay can be described thus: Caspase 3/7 and 7-AAD staining (flow cytometry). To be noted: compound 5 μM 72 h, then co-treatment with doxorubicin 62.5 nM 48 h.

`COc1cccc2c1C(=O)c1c(O)c3c(c(O)c1C2=O)C[C@@](O)(C(=O)CO)C[C@@H]3O[C@H]1C[C@H](N)[C@H](O)[C@H](C)O1` [doxorubicin]: in the assay with THP-1 cells [1] (6 h (methods)), the “formation of DSBs (γH2AX activation), drug alone” value is given as “up to 40%”. Further, the “ROS generation, drug alone” value with THP-1 cells [2] (doxorubicin 62.5 nM, 24 h) is given as “ROS generation”.
For `O=C(O)c1ccc(CN2CCC(CN[C@@H]3C[C@H]3c3ccccc3)CC2)cc1` [GSK2879552, reference compound], the “DSB levels, compound on its own or as a pretreatment to doxorubicin” value (from here on “DSB levels, compound”) in the assay on THP-1 cells [1] is reported as “neither”. For the same compound, in the assay with THP-1 cells [2], the “ROS in combination with doxorubicin vs doxorubicin alone” value (shortened to “ROS … vs doxorubicin alone”) is listed as “no further increase”.
Regarding `O=C(NO)c1ccc(CN2CCC(CNC3(c4ccccc4)CC3)CC2)cc1` [iHDAC6], the “DSB levels, compound” value with THP-1 cells [1] is on record as “mild increase”. Further, in the assay with THP-1 cells [2], the “ROS … vs doxorubicin alone” value is recorded as “no further increase”.
In the case of `O=C(CCCCCCNC(=O)c1cnc(N(c2ccccc2)c2ccccc2)nc1)NO` [ricolinostat, reference compound], the “DSB levels, compound” value in the assay on THP-1 cells [1] is listed as “neither”. In addition, in the assay with THP-1 cells [3], the “cell viability after pre-treatment with compound and co-treatment with doxorubicin” value is recorded as “to a much lesser extent”. The “ROS … vs doxorubicin alone” value with THP-1 cells [2] is reported as “no further increase”.
As to `O=C(NO)c1ccc(CN2CCC(CN[C@@H]3C[C@H]3c3ccccc3)CC2)cc1` (relative stereo) [iDual], the “cells in the apoptosis/dead quadrant (caspase 3/7 staining), pre-treatment then doxorubicin” value with THP-1 cells [4] is on record as “over 80%”. Besides, the “DSB levels, compound” value in the assay with THP-1 cells [1] is “neither”. In addition, in the assay with THP-1 cells [3], the “cell viability after pre-treatment with compound and co-treatment with doxorubicin” value was “significant decrease”. For the same compound, in the assay on THP-1 cells [2], the “ROS … vs doxorubicin alone” value was “no further increase”.
